Data reported in patent publication EP0325571B1, “New amines, their use and preparation” (priority 1988, dated 1989).

Amino acid sequences for entries named in this document (tags omitted).
UniProt P31389, whole entry: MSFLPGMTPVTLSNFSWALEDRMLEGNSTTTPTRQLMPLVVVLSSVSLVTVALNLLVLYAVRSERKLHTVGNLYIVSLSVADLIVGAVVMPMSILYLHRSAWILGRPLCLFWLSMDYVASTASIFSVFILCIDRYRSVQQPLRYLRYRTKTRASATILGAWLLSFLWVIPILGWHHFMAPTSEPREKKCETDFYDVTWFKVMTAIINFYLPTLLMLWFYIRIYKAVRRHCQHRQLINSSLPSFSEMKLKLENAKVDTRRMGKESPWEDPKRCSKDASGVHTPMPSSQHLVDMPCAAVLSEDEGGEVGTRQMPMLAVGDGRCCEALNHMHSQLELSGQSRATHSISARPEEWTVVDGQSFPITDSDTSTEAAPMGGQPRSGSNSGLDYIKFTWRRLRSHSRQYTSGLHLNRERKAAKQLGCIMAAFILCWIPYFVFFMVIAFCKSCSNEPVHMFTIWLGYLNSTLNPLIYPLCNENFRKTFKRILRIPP

Legend:
isolated ileum = isolated ileum (Cavia porcellus, UniProt P31389); experiment: Histamine antagonism on isolated ileum; set-up: species or system guinea pigs; conditions: read-out: Anti-HI effect IC50; guinea pig ileum; 5 x 10-^7 M of histamine; tested form: HBr
Procedure: c) Histamine-antagonism on isolated ileum
Preparation of isolated ileum from guinea pigs
The guinea pig is killed by a blow on the neck and decapitated. The abdomen is opened and about 2 cm of the ileum is cut off about 15 cm above the ileocaecal junction. The piece of ileum is washed with buffer and mounted in an organ bath. Changes in isometric tension is recorded by a force displacement transducer, connected to an amplifier and a writing oscillograph.
Dose : 5 x 10-^7 M of histamine.
(§1) The chosen dose of histamine gives about 70% of maximal response. The agonist is added to the bath at 3-minutes intervals. When reproducible contractions are obtained a fixed concentration of the test substance is added to the bath. After an incubation period of 2-10 minutes a new contraction is induced by histamine. The next concentration of the test substance is added when the original response of the agonist is obtained.
The agonistic effect of the test substance is calculated as per cent inhibition of the mean response by three preceding doses of histamine.

portal vein [1] = experiment: Ca-antagonistic effect on isolated portal vein (spontaneous myogenic activity); conditions: read-out: Anti-Ca effect IC50; rat portal vein; 10 mM K^+-solution added; cumulative doses; tested form: HBr
From the text: (§2) b) Antagonistic effect to noradrenaline and calcium on the portal vein
(§3) Preparation of isolated portal vein from rat
(§4) Animals : Albino, male rats, weighing about 200 g.
(§5) The rat is killed by a blow on the neck and decapitated. The abdomen is opened, the vein is dissected free from fat, cut open longitudinally and mounted in an organ bath. Changes in isometric tension is registered by a force displacement transducer, connected to an amplifier and a writing oscillograph.
Ca - antagonistic effect on portal vein
10 mM K^+-solution is added to the Krebs buffer to stabilize the spontaneous myogenic activity of the vein. The amplitude of the muscle contractions is measued. The test substance is added to the bath in cumulative doses until total inhibition is obtained.

portal vein [2] = experiment: Noradrenaline antagonism on isolated portal vein; conditions: read-out: Anti-N.A. effect IC50; rat portal vein; noradrenaline 3 x 10-^7 M; 10 minutes incubation; tested form: HBr
From the text: as §2, §3, §4, §5
Noradrenaline - antagonism on portal vein
Doses: Noradrenaline 3 x 10-^7 M
as §1, with “doses give” for “dose of histamine gives”, “10-minutes” for “3-minutes”, “10” for “2-10”, “noradrenaline” for “a new contraction”, “added.” for “induced by histamine.”
The antagonistic effect of the substance is calculated as per cent inhibition of the mean response by three preceding doses of the agonist.

isolated urinary bladder = experiment: Anticholinergic activity on isolated urinary bladder (inhibition of carbachol-induced contraction of bladder strips); set-up: species or system guinea-pigs; conditions: read-out: Antichol. effect IC50; guinea-pig bladder strips contracted with carbachol 3 x 10^-6M; 60 minutes incubation with antagonist; tested form: HBr
From the text: a) Anticholinergic activity on isolated urinary bladder
Male guinea-pigs, weighing 250-350 g, were killed by a blow on the head and exsanguinated. The urinary bladders were quickly removed and placed in Na^+-Krebs, in which they were kept throughout the dissection procedure. The bladders were dissected free from adherent fat and connective tissue before they were cut open by an incision on each side from the base towards apex. The mucosa was carefully removed with a pair of scissors. Four strips, approximately 3-5 mm long were prepared by cutting in a parallel direction to the longitudinal muscle fibres, on each half of the bladder.
The bladder strips were immediately mounted vertically in 5 ml organ baths containing Na^+-Krebs solution aerated with carbogene gas to maintain the pH at about 7.4. The temperature, 37°C, was thermostatically controlled by a Lauda MS3 thermostatic circulator. The preparations were suspended between two hooks, one of which was connected to a Grass Instruments FT03 force transducer. The isomeric tension of the preparations was recorded by a Grass polygraph model 79D. The resting tension was applied to approximately 5 mN. […]
Initially each antagonist was tested in a concentration of 10-t1M, on. two bladder-strips from different guinea-pigs. […] The effect of the antagonists was calculated as per cent inhibition of the mean of the initial agonist-induced contractions. […]

mice = experiment: Acute toxicity in mice, i.v. bolus; format: in vivo; conditions: tested form: HBr

`CN(CCC(c1ccccc1)c1ccc(O)cc1O)C(C)(C)C` (stereo not drawn) showed a pIC50 (isolated ileum) of 4.89, a pIC50 (portal vein [1]) of 4.19 and a pIC50 (portal vein [2]) of 4.52. The pIC50 (isolated urinary bladder) was 6.70, the “Acute toxicity i.v.” value (mice; LD50-interval: between highest dose where 4 mice survived and lowest dose where 4 mice died within 5 minutes after i.v. bolus) was >20 mg/kg and the Lethal dose (mice; lowest dose where 4 mice of 4 tested died within 5 minutes after i.v. bolus) was >20 mg/kg.

pIC50: −log10 of the molar value.
